From patent US20040048790A1, “Inducing cellular immune responses to p53 using peptide and nucleic acid compositions” (priority 1999, published 2004) come the findings set out here.

In experiment [1] the target is HLA-A*0201 (Homo sapiens, UniProt P04439, D140Y/D185E/D98H/E176V/E277Q/G131W/G231S/I119V/I121R/I166T/I218V/L300P/L318F/N151K/N90K/P208A/P217A/Q86G/Q94H/R138H/R169H/T345S). Put plainly: biochemical.
The target of experiment [2] is A*0206 (Homo sapiens, UniProt P04439, D140Y/D185E/D98H/E176V/E277Q/F33Y/G131W/G231S/I119V/I121R/I166T/I218V/L300P/L318F/N151K/N90K/P208A/P217A/Q86G/Q94H/R138H/R169H/T345S). As to the kind of experiment: biochemical. The settings on record: A*0206 binding affinity, Table XXII, A2 supermotif analogs.
In experiment [3] the target is B*3501 (Homo sapiens, UniProt P01889, A329T/A93T/A95T/C349S/D201E/D98Y/E176V/E187L/E204Q/E69T/I218V/K202T/L119I/Q94N/R155S/R180L/S121R/S35A/S48A/T118I/V127L/V306I/V36M/Y140S/Y91F). As to the kind of experiment: biochemical.
The target of experiment [4] is B51. More on the design: species or system human. The settings on record: Table XXIV, B7 supermotif peptides; read-out: B*5101 binding affinity.
Experiment [5] has as its target HLA-B*0702 (Homo sapiens, UniProt P01889). As to the kind of experiment: biochemical.
Experiment [6] has as its target A*3101 (Homo sapiens, UniProt P04439, A270S/D185E/E176V/E277Q/F33T/G231S/G80R/H175R/I121M/I218V/I322F/K168Q/L300P/L318F/M331R/P217A/Q94H/R138Q/T323A/T345S/T97I/V358M). Put plainly: biochemical.
Experiment [7] addresses A*6801 (Homo sapiens, UniProt P04439, A269V/D185E/E176V/E277Q/E87N/F33Y/G231S/I121M/I166T/I218V/L180W/L300P/L318F/N151K/P208A/P217A/Q86R/R169H/T345S). As to the kind of experiment: biochemical.
Experiment [8] has as its target HLA-A*0301 (Homo sapiens, UniProt P04439). Put plainly: biochemical.
Experiment [9] deals with A*3301 (Homo sapiens, UniProt P04439, A270S/D185E/E176V/E277Q/E87N/F33T/G231S/H175R/I121M/I218V/I322F/K168Q/K210R/L300P/L318F/M331R/P217A/Q86R/Q94H/R138Q/T323A/T345S/T97I/V358M/Y195H). Put plainly: biochemical.

Structures are written as SMILES.

As for `CC[C@H](C)[C@H](N)C(=O)N[C@@H](CC(C)C)C(=O)N[C@@H](CC(C)C)C(=O)N[C@@H](CCC(=O)O)C(=O)N[C@@H](CC(=O)O)C(=O)N[C@@H](CO)C(=O)N[C@@H](CO)C(=O)NCC(=O)N[C@@H](CC(N)=O)C(=O)N[C@@H](CC(C)C)C(=O)N[C@H](C(=O)O)C(C)C` [p53.255L2V11], the IC50 in experiment [1] is 33 nM.
As to `CC(C)C[C@H](NC(=O)[C@H](C)N)C(=O)N1CCC[C@H]1C(=O)N1CCC[C@H]1C(=O)N[C@H](C(=O)N[C@@H](C)C(=O)N1CCC[C@H]1C(=O)N[C@H](C(=O)O)C(C)C)C(C)C` [p53.69L2V8], the IC50 in [2] was determined as 285 nM.
Take `C[C@H](N)C(=O)N1CCC[C@H]1C(=O)N[C@@H](C)C(=O)N1CCC[C@H]1C(=O)N[C@@H](C)C(=O)N1CCC[C@H]1C(=O)N[C@@H](CO)C(=O)N[C@@H](Cc1c[nH]c2ccccc12)C(=O)O` [p53.84]: in experiment [3], the IC50 stood at 3270 nM.
In the case of `CC[C@H](C)[C@H](NC(=O)[C@H](CO)NC(=O)[C@@H]1CCCN1C(=O)[C@H](C)NC(=O)[C@@H]1CCCN1C(=O)[C@H](C)NC(=O)[C@@H]1CCCN1C(=O)[C@H](C)N)C(=O)O` [p53.84.18], the IC50 in experiment [4] stood at 500 nM; in experiment [5], 275 nM.
For the compound `CC[C@H](N)C(=O)N[C@H](C(=O)N[C@@H](Cc1ccc(O)cc1)C(=O)N[C@@H](CO)C(=O)N1CCC[C@H]1C(=O)N[C@@H](C)C(=O)N[C@@H](CC(C)C)C(=O)N[C@@H](CC(N)=O)C(=O)N[C@@H](CCCNC(=N)N)C(=O)O)C(C)C` [p53.124.B1V2R9], the IC50 in experiment [6] came out at 33 nM; in experiment [7], 15 nM; in experiment [8], 25 nM; in experiment [9] it was 85 nM.
